Patent US7090985B2, “Methods for the identification of agents for the treatment of seizures, neurological diseases, endocrinopathies and hormonal diseases” (UCB, S.A., priority 2002, dated 2006)
Entries after “also recorded” stand apart in the source; their conditions may differ.

Protein sequences, listed by entry. Tags and fused reporters are not part of them.
UniProt Q02563, whole entry: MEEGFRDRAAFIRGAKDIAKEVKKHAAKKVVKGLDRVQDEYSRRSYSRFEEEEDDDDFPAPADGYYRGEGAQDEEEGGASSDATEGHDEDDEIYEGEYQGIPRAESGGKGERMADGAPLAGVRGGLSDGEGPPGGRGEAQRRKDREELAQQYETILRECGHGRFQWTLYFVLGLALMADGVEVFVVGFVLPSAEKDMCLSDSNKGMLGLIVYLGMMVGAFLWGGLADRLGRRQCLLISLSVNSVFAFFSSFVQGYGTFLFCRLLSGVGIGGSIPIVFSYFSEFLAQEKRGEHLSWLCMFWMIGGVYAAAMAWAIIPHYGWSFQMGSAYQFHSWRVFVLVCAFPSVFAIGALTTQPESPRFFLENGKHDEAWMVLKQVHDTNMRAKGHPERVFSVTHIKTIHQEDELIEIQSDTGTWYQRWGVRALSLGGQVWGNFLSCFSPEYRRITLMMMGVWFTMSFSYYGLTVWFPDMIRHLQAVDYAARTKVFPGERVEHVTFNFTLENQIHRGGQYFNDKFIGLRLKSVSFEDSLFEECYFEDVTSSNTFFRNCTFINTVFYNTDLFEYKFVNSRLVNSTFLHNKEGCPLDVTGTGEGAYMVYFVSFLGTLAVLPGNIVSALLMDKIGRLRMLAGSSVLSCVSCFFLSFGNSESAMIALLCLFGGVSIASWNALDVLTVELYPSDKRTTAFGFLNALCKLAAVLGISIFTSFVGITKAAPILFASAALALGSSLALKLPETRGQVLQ

Target: T1, LBS (Rattus norvegicus, UniProt Q02563)
T1 construct: from tissue; host or cells: rat brain (crude membranes; 25 µm brain slices for autoradiography)
Assay: Autoradiography of [3H]ucb 30889 binding on rat brain sections
Conditions: unlabeled levetiracetam
Description: To identify and characterize the LBS in situ, ^[3H]ucb 30889 was used to map the LBS within the brain and to study both its cellular and subcellular distribution. […] Binding assays with rat brain membranes and various neuronal cell lines were performed under similar conditions. […] For photolabeling, membranes were incubated with […] ^[3H]ucb 30889 for 120 min at 4° C. in the same buffer, followed by irradiation with UV-light for 30 min.

CC[C@@H](C(N)=O)N1CCCC1=O [levetiracetam, (S)-α-ethyl-2-oxo-1-pyrrolidine acetamide]
inhibition of [3H]ucb 30889 binding: concentration dependent inhibition; also recorded: can be inhibited
